In series [1] the test system is H292-HGF human lung cancer xenograft. The series is described as follows: Efficacy of bispecific molecule and other inhibitors in H292-HGF xenograft model (tumor volume, T/C, T-C). It counts as in vivo, SCID/Beige mice.
Series [2] is described as follows: Body weight loss / tolerability in H292-HGF xenograft study. The settings on record: treatment and 2 weeks observation.

The values below come from patent US10662235B2, “Cysteine engineered fibronectin type III domain binding molecules” (Janssen Biotech, Inc., priority 2016, dated 2020).

For Cetuximab: anti-EGFR antibody, the antitumor activity entry in series [1] (H292-HGF xenograft) is “significant antitumor activities”. In addition, the “tumor growth delay at tumor size of 1,000 mm^3 compared with the vehicle group” value in series [1] (mouse, in vivo) was determined as 17 days. Moreover, in series [2], the “toxicity / body weight loss / tolerability” value is listed as “well tolerated”.
